For assay [1], the target named is CNMT (coclaurine N-methyltransferase) (Coptis japonica, UniProt Q948P7, Y328A). Nature of the assay: N-methylation steady-state kinetics. The following applies: AdoMet as methyl donor; stereochemistry of 3 not stated in main text.
For assay [2], the target named is CNMT (coclaurine N-methyltransferase) (Coptis japonica, UniProt Q948P7). Briefly: N-methylation steady-state kinetics. The following applies: AdoMet as methyl donor; stereochemistry of 3 not stated in main text.

Broadly, the Km is the concentration of substrate that gives half-maximal velocity. As to `Oc1ccc(C[C@@H]2NCCc3cc(O)c(O)cc32)cc1` [compound 3, norcoclaurine], the Km in assay [1] came to 601 µM; in assay [2], 265 µM.

Values taken from publication PMC6099451, “Structure and Biocatalytic Scope of Coclaurine N‐Methyltransferase” (Angewandte Chemie (International Ed. in English), 2018).
